Literature values in patent publication US20230149373A1, “USE OF BROMODOMAIN INHIBITORS FOR TREATMENT OF HUNTINGTON'S DISEASE” (RUMI SCIENTIFIC HOLDINGS, INC., priority 2020, published 2023).

Chains of the proteins cited; added tags and fusions are not shown.
UniProt P25440, whole entry: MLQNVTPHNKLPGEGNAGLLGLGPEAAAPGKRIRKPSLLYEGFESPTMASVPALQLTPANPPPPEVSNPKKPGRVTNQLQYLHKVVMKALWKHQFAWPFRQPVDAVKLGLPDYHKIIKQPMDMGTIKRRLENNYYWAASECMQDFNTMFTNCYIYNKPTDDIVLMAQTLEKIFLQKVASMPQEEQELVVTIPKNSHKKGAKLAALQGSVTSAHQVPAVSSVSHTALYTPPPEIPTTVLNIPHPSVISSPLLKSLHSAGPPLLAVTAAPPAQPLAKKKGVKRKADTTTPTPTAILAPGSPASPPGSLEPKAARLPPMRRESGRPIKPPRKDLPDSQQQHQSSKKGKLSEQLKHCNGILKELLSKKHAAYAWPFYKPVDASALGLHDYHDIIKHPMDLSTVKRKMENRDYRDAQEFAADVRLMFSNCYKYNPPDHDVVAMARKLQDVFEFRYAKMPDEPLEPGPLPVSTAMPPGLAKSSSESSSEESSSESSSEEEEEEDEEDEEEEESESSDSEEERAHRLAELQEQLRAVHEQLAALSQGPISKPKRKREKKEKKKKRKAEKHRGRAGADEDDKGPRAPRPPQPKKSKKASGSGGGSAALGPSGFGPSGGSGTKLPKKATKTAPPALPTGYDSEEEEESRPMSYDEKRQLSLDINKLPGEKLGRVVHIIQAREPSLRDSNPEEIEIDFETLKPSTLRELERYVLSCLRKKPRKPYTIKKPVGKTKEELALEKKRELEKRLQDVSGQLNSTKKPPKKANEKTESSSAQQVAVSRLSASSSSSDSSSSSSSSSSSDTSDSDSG

Biological target: BRD2 (Homo sapiens, UniProt P25440)
Settings: described in the literature; cited from earlier work

CCOC(=O)Nc1cc(-c2ccc(C)c(NS(C)(=O)=O)c2)nn2c(C)nnc12 [Bromosporine]
IC50: 410 nM
